The chains behind the UniProt entries cited, without tags or fusion partners.
UniProt P11309, whole entry: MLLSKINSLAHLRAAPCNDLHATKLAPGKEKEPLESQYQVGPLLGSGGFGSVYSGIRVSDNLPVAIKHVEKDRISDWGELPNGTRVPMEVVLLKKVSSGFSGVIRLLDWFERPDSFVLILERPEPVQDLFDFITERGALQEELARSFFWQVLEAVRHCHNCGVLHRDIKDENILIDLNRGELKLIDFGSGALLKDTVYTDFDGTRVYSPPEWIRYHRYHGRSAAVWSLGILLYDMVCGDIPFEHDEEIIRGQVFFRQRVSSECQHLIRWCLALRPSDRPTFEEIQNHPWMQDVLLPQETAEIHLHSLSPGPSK

According to ChEMBL document CHEMBL3632547, “Discovery of 3,5-substituted 6-azaindazoles as potent pan-Pim inhibitors” (Bioorg Med Chem Lett, 2015):

Target: Serine/threonine-protein kinase pim-1 (Homo sapiens, UniProt P11309)

**Q.** With `Cn1cc(-c2cc3c(-c4cccc(N5CCC[C@@H](N)C5)n4)n[nH]c3cn2)cn1` as the molecule, how does the Ki read?
**A.** The Ki was 140 pM.
